The values that follow come from patent publication US11407736B2 (priority 2019, dated 2022).

Chains of the proteins cited; added tags and fusions are not shown.
UniProt Q13546, whole entry, species assumed: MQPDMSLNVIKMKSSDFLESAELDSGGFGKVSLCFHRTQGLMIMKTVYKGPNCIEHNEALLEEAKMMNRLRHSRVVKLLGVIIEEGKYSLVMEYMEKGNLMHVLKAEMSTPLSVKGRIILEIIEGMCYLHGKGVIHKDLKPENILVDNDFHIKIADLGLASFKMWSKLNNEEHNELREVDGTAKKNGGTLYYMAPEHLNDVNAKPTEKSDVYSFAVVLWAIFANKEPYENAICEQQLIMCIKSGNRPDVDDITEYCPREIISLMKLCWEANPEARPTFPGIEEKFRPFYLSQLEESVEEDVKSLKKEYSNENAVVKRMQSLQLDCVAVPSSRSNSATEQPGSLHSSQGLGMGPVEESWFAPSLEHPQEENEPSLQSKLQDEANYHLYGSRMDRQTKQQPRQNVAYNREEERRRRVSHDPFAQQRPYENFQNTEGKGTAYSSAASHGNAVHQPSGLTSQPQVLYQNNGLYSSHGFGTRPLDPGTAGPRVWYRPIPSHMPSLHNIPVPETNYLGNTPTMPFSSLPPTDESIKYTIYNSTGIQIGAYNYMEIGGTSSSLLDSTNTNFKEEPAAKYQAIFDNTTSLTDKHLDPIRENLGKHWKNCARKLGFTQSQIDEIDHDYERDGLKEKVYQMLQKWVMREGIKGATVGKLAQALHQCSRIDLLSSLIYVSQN

In the test the target is RIPK1 (Homo sapiens (Human), UniProt Q13546). The test is described as follows: RIPK1 ADP-Glo biochemical kinase assay. Here is the method:
The final reaction volume was 5.0ul.
Adding 5 μl of ADP-Glo™ terminated the reaction.

In turn, `CN1C(=O)[C@@H](NC(=O)c2cc(Oc3ccccc3)ccn2)COc2ccc(C#CC3(F)CNC3)cc21` [Compound I-143] registered an IC50 of 27.9 nM.
